The assay addresses T1, human mGluR2 (hmGluR2) (Homo sapiens, UniProt Q14416).
T1 construct: expressed in transfected cells; host or cells: HEK-293 cells, transient co-transfection by electroporation
The experiment in a line: Ca++ functional assay, human mGluR2 transiently over-expressed in HEK-293 cells (agonist and negative allosteric modulator modes). Type of assay: cell-based. Here is the method:
Example 127: Human mGluR2 and mGluR3 Evaluation Using Ca^++ Functional Assay
Examples of the present invention were tested successively for their agonist and negative allosteric modulator activities on human mGluR2 (hmGluR2) and mGluR3 (hmGluR3) transiently over-expressed in HEK-293 cells. Compounds exert agonist activity if, by themselves in absence of glutamate, they are able to activate hmGluR2 or hmGluR3; and they exert negative allosteric modulator activity if they decrease the action of glutamate (which is employed at its EC80 concentration).
Cell Culture and Transfection […]
Receptor activity is detected by changes in intracellular calcium measured using the fluorescent Ca^2+ sensitive dye, Fluo4AM (Molecular Probes).
On the day of the assay, culture medium is aspirated and replaced during 3 hours by medium without serum supplemented with 1% Glutamax, 1% Penicillin/Streptomycin and 1% non-essential amino acids. […] Addition of compounds and intracellular Ca^2+ measurements (excitation 485 nm, emission 525 nm) are performed by the fluorescence microplate reader FLIPRTetra (Molecular Devices).
Agonist and negative allosteric modulator activities of compounds are consecutively evaluated on the same cell plate. […] Then, cells are stimulated by an EC80 glutamate concentration and fluorescence is recorded for additional 3 minutes. […]

Protein sequences, listed by entry. Tags and fused reporters are not part of them. Residues count along the entry.
UniProt Q14416, 19-872: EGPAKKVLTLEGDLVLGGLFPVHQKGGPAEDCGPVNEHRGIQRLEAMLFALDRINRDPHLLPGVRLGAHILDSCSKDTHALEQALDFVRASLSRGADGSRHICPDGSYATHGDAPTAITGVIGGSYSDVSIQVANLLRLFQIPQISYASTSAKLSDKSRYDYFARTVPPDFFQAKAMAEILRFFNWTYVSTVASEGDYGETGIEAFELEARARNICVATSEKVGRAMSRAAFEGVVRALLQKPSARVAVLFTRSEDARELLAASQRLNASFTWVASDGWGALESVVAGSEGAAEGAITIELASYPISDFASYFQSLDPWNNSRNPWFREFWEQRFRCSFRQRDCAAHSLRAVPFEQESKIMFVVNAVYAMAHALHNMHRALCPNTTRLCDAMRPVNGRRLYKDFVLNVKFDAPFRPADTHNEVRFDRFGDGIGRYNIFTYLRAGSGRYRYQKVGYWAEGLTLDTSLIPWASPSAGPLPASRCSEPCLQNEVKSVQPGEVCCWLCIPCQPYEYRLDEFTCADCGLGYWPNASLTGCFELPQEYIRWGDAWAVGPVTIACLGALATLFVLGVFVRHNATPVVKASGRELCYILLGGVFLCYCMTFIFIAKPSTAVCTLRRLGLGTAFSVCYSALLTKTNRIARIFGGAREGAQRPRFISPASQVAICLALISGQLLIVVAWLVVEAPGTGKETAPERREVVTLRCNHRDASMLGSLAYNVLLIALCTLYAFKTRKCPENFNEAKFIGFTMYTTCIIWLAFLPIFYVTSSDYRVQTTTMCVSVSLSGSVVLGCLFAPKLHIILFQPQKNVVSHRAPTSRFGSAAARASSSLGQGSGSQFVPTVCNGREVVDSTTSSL

Here are results for 2 compounds from US10221179B2, “Substituted pyrazoloquinazolinones and pyrroloquinazolinones as allosteric modulators of group II metabotropic glutamate receptors” (DOMAIN THERAPEUTICS, priority 2014, dated 2019).

The structures appear in SMILES notation.

In general, IC50 refers to the midpoint of a concentration-inhibition curve. In the case of `Cn1c(=O)c2ccc(-c3ccc(N)nc3)cc2n2nc(-c3ccccc3)cc12` [A, reference compound], the IC50 was < 100 nM. With `Cn1c(=O)c2ccc(-c3cccc(S(N)(=O)=O)c3)cc2n2nc(-c3ccccc3)cc12` [B, reference compound], the IC50 is < 100 nM.
